For one series, the system named is BT474 tumors. The conditions noted are these: mouse, in vivo.
The conditions of series [1]: mouse, in vivo.
Series [2] has as its system BT474, MCF7, MCF7TamR tumors. The conditions noted are these: mouse, in vivo.

For “ALEXA FLUOR 647 labeled HERCEPTIN: HERCEPTIN (trastuzumab, Genentech) anti-HER2/neu antibody labeled with Alexa 647 fluorophore”, in the series on BT474 tumors, the “Results Summary of repeat experiment” value was “Same results as above with”, the “normal tissue signal after 17 hours” value is on record as “slightly higher than baseline readings”, the “signal in tumor vs normal tissue or pre-injection baseline in tumor” value is “significantly higher” and the “time peak uptake reached after injection” value is “many hours”. In series [1], the “Signal intensity vs that previously seen in normal tissue of HERCEPTIN experiments” value is “Signal intensity was equal to that”, the “distribution throughout the body by external probing” value is reported as “probing showed it was fairly equally” and the “signal in mammary tissue” value is listed as “have been slightly higher in mammary”. Besides, in series [1] (iv), the Peak uptake occurred entry was “Peak uptake occurred within minutes”. For the same substance, in series [2], the “AUC in Her2 overexpressing lines vs Her2 negative line” value is recorded as “greater”, the “AUC vs non-specific MOAb in Her2(+) lines” value is reported as “greater”, the “AUC vs non-specific MOAb in the MCF7 line” value is given as “equivalent” and the “uptake in orthotopic site compared to ectopic site” value is listed as “may be greater”.

These data come from patent US7510699B2, “In vivo fluorescence sensors, systems, and related methods operating in conjunction with fluorescent analytes” (Sicel Technologies, Inc., priority 2003, dated 2009).
